From patent US20030036633A1, “DNA encoding bradykinin B1 receptor” (Merck & Co., Inc., priority 1994, published 2003)

Protein sequences, listed by entry. Tags and fused reporters are not part of them. Lines headed by an entry give the natural chain unless they say otherwise; changes in a name come on top.
UniProt P01042: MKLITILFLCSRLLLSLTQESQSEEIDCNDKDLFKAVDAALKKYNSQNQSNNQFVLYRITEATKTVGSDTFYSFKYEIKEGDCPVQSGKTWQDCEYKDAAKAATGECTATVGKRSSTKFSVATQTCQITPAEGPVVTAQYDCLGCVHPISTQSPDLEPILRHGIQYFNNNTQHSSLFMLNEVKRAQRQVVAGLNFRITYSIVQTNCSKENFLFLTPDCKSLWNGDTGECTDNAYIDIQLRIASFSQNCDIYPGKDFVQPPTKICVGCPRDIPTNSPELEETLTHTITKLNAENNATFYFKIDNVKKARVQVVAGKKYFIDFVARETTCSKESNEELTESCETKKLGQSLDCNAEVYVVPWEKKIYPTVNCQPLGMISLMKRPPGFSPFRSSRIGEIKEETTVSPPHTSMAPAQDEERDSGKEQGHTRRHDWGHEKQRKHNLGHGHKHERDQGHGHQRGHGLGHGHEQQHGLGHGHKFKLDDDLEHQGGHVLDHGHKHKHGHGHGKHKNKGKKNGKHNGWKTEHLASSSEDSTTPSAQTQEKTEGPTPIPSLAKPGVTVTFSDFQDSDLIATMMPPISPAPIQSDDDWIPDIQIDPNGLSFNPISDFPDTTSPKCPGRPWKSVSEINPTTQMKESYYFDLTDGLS

Tests used:
[1] = target: T1, cloned human B1 bradykinin receptor in transiently transfected COS-7 cells (COS 33E9) (Homo sapiens, UniProt P46663); experiment: Displacement of 1 nM [3H]des-Arg10kallidin, membrane binding assay, COS 33E9; conditions: read-out: IC50, COS 33E9, membranes of transiently transfected COS-7 cells
T1 construct: the full-length open reading frame of the B1 DNA (encoding a protein of about 40.4 kDa =about base 209 to about base 1267); expressed in transfected cells; host or cells: COS-7 cells, transient electroporation of clone 33E9 (pcDNA3 library vector)
T1 sequence (P46663 1-353): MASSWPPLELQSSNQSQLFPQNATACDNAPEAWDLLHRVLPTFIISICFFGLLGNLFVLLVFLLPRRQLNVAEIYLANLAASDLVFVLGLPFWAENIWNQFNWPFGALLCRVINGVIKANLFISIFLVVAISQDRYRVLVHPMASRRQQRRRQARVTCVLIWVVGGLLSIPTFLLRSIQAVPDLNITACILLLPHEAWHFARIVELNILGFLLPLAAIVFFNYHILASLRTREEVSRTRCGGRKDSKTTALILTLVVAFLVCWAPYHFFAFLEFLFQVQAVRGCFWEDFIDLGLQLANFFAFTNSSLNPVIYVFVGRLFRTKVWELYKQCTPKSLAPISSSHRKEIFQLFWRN
Method: Transient expression of the cloned B1 bradykinin receptor in COS-7 cells was accomplished by electroporation using a Biorad Gene Pulser. […] Binding assays were performed at room temperature for 45 minutes. Reactions were terminated by filtration using an Inotech cell harvester onto glass fiber filters (Inotech) that had been briefly soaked in 0.3% polyethyleneimine. The filters were washed five times with 1 ml per well of cold PBS and counted in a liquid scintillation counter. Alternatively, reactions were collected using a Tomtec cell harvester 96 onto 0.3% polyethyleneimine presoaked glass fiber filters (Pharmacia, printed filtermat for use with the 1205 Betaplate). The filter was washed five times with a total of 10 ml per well of cold 1× PBS, dried and sealed in a bag (Pharmacia) containing scintillation fluid. Counting was accomplished using a LKB1205 Betaplate liquid scintillation counter.

[2] = target: T2, B1 receptor in IMR-90 cells (Homo sapiens, UniProt P46663); experiment: Displacement of 1 nM [3H]des-Arg10kallidin, membrane binding assay, IMR-90; conditions: read-out: IC50, IMR-90, IMR-90 membranes
T2 construct: 33E9) with the B1 receptor in IMR-90 cells (IMR-90); endogenous in cells; host or cells: IMR-90 cells (ATCC CCL 186)
T2 sequence (P46663 1-353): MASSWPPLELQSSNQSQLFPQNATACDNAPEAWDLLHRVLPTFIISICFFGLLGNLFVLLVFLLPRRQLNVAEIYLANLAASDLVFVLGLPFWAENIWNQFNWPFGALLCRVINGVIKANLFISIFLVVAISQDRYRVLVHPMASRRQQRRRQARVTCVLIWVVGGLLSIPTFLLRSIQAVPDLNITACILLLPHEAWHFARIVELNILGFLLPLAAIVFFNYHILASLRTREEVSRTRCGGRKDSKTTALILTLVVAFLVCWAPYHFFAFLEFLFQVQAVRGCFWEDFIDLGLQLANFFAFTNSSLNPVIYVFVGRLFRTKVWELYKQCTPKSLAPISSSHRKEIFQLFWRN

[3] = target: T3, B1 bradykinin receptor clone 33E9 transfected into COS-7 cells (Homo sapiens, UniProt P46663); experiment: Saturation binding with [3H]des-Arg10kallidin, Scatchard analysis; conditions: Scatchard analysis of saturation binding data; clone 33E9 in COS-7 cells
T3 construct: the full-length open reading frame of the B1 DNA (encoding a protein of about 40.4 kDa =about base 209 to about base 1267); expressed in transfected cells; host or cells: COS-7 cells, transient electroporation of clone 33E9 (pcDNA3 library vector)
T3 sequence (P46663 1-353): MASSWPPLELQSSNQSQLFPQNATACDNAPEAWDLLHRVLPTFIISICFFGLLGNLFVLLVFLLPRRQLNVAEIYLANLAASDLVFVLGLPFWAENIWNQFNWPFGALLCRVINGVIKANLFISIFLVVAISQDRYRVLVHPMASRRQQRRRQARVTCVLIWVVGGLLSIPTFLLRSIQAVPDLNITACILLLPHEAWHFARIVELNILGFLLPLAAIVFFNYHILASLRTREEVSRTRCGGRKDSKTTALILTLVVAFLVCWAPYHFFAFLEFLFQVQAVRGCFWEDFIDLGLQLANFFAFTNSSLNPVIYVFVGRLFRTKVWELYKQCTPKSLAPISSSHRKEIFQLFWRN
Method: Transient expression of the cloned B1 bradykinin receptor in COS-7 cells was accomplished by electroporation using a Biorad Gene Pulser. Three days post-transfection, cells were processed for a whole cell binding assay as previously published (K. A. Schneck, J. F. Hess, G. Y. Stonesifer, R. W. Ransom, European Journal of Pharmacology—Molecular Pharmacology Section 266, 277-282 (1994)) or membranes were prepared as described previously (Huang, R. -R. C., Dehaven, R. N., Cheung, A. H., Diehl, R. E., Dixon, R. A. F., Strader, C. D., Molecular Pharmacology 37, 304-310 (1990)) and radioligand binding measured as follows. Displacement studies were done with 1 nM [des-Arg^10],[3,4-^3H(N)]-kallidin (NEN) in the presence of varying concentrations of competitor compounds. Binding assays were performed at room temperature for 45 minutes. Reactions were terminated by filtration using an Inotech cell harvester onto glass fiber filters (Inotech) that had been briefly soaked in 0.3% polyethyleneimine. The filters were washed five times with 1 ml per well of cold PBS and counted in a liquid scintillation counter. […]
The B1 bradykinin receptor clone 33E9 was transfected into COS-7 cells and the pharmacological properties of the expressed receptor were determined.

[4] = target: T4, cloned human B1 bradykinin receptor (clone 33E9) (human, UniProt P46663 1-353); experiment: displacement of 1 nM [3H]des-Arg10kallidin, membrane binding assay, COS-7 cells transiently transfected with clone 33E9
T4 construct: Transiently expressed in COS-7 cells; The same clone was expressed from cRNA in Xenopus oocytes for the functional read-out; also called COS 33E9; the cloned receptor
T4 sequence: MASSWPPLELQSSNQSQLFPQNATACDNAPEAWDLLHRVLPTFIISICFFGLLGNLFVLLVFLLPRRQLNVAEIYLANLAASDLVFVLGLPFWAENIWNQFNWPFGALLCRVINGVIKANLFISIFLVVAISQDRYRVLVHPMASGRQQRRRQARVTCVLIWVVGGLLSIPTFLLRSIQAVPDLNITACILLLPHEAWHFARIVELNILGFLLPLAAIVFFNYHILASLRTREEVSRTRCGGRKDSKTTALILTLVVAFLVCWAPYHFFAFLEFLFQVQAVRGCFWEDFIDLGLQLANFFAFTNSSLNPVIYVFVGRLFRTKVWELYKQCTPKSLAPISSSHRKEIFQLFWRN
Method: (§1) Binding assays were performed at room temperature for 45 minutes. Reactions were terminated by filtration using an Inotech cell harvester onto glass fiber filters (Inotech) that had been briefly soaked in 0.3% polyethyleneimine. The filters were washed five times with 1 ml per well of cold PBS and counted in a liquid scintillation counter. Alternatively, reactions were collected using a Tomtec cell harvester 96 onto 0.3% polyethyleneimine presoaked glass fiber filters (Pharmacia, printed filtermat for use with the 1205 Betaplate). The filter was washed five times with a total of 10 ml per well of cold 1× PBS, dried and sealed in a bag (Pharmacia) containing scintillation fluid. Counting was accomplished using a LKB₁₂₀₅ Betaplate liquid scintillation counter.
(§2) The IC₅₀'s were determined by the displacement of 1 nM [³H]des- Arg¹⁰kallidin in the membrane binding assay described above.

[5] = target: T5, B1 bradykinin receptor in IMR-90 cells (human, UniProt P46663 1-353); experiment: displacement of 1 nM [3H]des-Arg10kallidin, membrane binding assay, IMR-90 cells
T5 construct: whole, on cells; Endogenous receptor; also called B1 receptor expressed in IMR-90 cells
T5 sequence (looked up): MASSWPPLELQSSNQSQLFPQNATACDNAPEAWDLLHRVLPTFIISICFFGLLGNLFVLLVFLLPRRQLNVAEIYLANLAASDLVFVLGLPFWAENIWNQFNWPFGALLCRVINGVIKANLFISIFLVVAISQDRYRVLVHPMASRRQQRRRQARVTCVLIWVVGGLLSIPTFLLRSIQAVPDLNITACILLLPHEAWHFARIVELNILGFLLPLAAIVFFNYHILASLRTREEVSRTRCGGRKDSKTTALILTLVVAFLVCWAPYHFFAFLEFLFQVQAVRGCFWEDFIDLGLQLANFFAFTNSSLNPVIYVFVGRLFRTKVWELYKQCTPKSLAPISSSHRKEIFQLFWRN
Method: as §1, §2

How did the IC50 [1] turn out when Met-Lys-Bradykinin was run?
The IC50 was 71 nM.

With des-Arg^10Leu^9kallidin as the molecule, how does the IC50 [2] read?
Its IC50 is 7.8 nM.

For “[des-Arg^10],[3,4-^3H(N)]-kallidin [[^3H]des-Arg^10kallidin]”, which Kd [3] is on record?
The Kd was roughly 1 nM.

What does the source list for des-Arg^9bradykinin?
IC50 [1]: 1500 nM; IC50 [2]: 660 nM

What does the source list for des-Arg^9Leu^8bradykinin?
IC50 [1]: 605 nM; IC50 [2]: 266 nM

Kallidin was tested. Which IC50 [1] did it give?
The IC50 was 46 nM.

What about the IC50 [2] of the same molecule?
The IC50 was 44 nM.

MKRPPGFSPFR (peptide, UniProt P01042 379-389, looked up, domain: Met-Lys-Bradykinin) [Met-Lys-Bradykinin] was tested. Which IC50 [4] did it give?
The IC50 was 71 nM.

KRPPGFSPL [des-Arg^10Leu^9kallidin] was tested. Which IC50 [5] did it give?
Its IC50 is 7.8 nM.

How did the IC50 [5] turn out when KRPPGFSPFR (peptide, UniProt P01042 380-389, looked up, domain: Kallidin; also called Lys-BK) [Kallidin] was run?
The IC50 was 44 nM.

What about the IC50 [4] of the same molecule?
The IC50 was 46 nM.

With RPPGFSPL [des-Arg^9Leu^8bradykinin] as the molecule, how does the IC50 [5] read?
The IC50 was 266 nM.

And the IC50 [4]?
The IC50 was 605 nM.
